# Laboratory results from publication PMC8138772 (The Journal of Biological Chemistry, 2021).
# The chains behind the UniProt entries cited, without tags or fusion partners. Residues count along the entry.
# UniProt P06756, 891-1048 partner limits assumed: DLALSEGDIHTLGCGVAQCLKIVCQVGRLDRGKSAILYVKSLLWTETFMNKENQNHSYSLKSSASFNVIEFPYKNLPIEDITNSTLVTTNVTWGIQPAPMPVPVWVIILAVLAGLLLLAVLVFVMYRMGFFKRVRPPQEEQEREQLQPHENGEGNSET
# UniProt P06756, 31-889 limits assumed: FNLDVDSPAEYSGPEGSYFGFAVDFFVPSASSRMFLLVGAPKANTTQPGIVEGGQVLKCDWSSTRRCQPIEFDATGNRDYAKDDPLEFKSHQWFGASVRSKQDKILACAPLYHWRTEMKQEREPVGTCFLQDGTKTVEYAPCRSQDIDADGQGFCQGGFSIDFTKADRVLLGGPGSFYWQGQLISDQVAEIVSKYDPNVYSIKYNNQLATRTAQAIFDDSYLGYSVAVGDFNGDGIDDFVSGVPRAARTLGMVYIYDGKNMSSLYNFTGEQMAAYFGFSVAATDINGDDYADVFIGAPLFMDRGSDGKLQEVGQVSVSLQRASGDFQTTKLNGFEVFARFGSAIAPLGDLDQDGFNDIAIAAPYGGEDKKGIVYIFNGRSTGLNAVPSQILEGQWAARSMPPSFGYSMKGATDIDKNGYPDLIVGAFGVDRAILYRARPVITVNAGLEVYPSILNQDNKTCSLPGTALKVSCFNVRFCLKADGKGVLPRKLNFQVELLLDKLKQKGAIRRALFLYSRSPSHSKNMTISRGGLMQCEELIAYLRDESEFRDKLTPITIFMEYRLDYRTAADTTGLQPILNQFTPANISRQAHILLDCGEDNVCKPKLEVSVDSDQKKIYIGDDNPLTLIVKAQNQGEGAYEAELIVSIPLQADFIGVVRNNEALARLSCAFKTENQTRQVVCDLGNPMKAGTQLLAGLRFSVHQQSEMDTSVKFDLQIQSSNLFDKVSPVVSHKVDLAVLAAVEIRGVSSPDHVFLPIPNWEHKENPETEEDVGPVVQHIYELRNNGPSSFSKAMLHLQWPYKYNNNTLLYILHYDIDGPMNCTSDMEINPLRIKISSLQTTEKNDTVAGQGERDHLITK
# UniProt P18564, 22-788 limits assumed: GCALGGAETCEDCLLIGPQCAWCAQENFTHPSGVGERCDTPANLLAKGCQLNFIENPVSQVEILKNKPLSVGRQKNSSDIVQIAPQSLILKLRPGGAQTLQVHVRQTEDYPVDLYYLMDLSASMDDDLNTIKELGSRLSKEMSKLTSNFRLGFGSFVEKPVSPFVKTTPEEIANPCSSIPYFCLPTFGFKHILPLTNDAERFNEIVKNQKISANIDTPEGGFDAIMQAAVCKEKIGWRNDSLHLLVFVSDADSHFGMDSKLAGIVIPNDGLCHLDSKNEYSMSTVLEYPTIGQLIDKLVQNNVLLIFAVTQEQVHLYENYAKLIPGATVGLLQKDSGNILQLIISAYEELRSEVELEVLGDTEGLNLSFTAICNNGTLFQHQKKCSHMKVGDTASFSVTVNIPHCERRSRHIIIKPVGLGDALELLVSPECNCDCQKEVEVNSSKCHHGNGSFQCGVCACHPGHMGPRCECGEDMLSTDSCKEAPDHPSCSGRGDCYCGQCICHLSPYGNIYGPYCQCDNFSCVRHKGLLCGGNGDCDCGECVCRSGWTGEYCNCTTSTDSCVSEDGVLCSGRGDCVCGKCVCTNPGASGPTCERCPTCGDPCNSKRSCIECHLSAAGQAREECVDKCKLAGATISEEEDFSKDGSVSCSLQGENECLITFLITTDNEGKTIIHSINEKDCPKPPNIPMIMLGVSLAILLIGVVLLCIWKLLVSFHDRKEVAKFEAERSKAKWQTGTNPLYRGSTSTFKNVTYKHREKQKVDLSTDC
# Target: K562 αvβ6:mCherry cells (αvβ6 integrin) (Homo sapiens, UniProt P06756+P18564)
# Test: biochemical
# Type: binding
# Details: not given
row,SMILES,Kd [µM]
1,"CC(C)C[C@H](NC(=O)[C@H](CC(=O)O)NC(=O)CNC(=O)[C@H](CCCNC(=N)N)NC(=O)[C@H](CC(C)C)NC(=O)[C@H](CC(N)=O)NC(=O)[C@@H]1CCCN1C(=O)[C@@H](NC(=O)[C@H](C)NC(=O)[C@H](CC(N)=O)NC(=O)CCCC[C@@H]1SC[C@@H]2NC(=O)N[C@@H]21)C(C)C)C(=O)N[C@@H](CCC(N)=O)C(=O)N[C@H](C(=O)N[C@@H](CC(C)C)C(=O)N[C@@H](C)C(=O)N[C@@H](CCC(N)=O)C(=O)N[C@@H](CCCCN)C(=O)N[C@H](C(=O)N[C@@H](C)C(=O)N[C@@H](CCCNC(=N)N)C(=O)N[C@H](C(=O)N[C@@H](CCCCN)C(N)=O)[C@@H](C)O)C(C)C)C(C)C [A20FMDV2, reference compound]",0.0631 ± 0.0206
2,CC(C)C[C@@H]1NC(=O)[C@H](CC(=O)O)NC(=O)CNC(=O)[C@H](CCCNC(=N)N)NC(=O)[C@H](CC(C)C)NC(=O)[C@H](CC(N)=O)NC(=O)[C@@H]2CCCN2C(=O)[C@H](C(C)C)NC(=O)[C@H](C)NC(=O)[C@@H](NC(=O)CCCC[C@@H]2SC[C@@H]3NC(=O)N[C@@H]32)CSc2c(F)c(F)c(c(F)c2F)-c2c(F)c(F)c(c(F)c2F)SC[C@@H](C(=O)N[C@@H](CCCNC(=N)N)C(=O)N[C@H](C(=O)N[C@@H](CCCCN)C(N)=O)[C@@H](C)O)NC(=O)[C@H](C(C)C)NC(=O)[C@H](CCCCN)NC(=O)[C@H](CCC(N)=O)NC(=O)[C@H](C)NC(=O)[C@H](CC(C)C)NC(=O)[C@H](C(C)C)NC(=O)[C@H](CCC(N)=O)NC1=O [C1C18 DFBP],0.0853 ± 0.0186
3,CC(C)C[C@@H]1NC(=O)[C@H](CC(=O)O)NC(=O)CNC(=O)[C@H](CCCNC(=N)N)NC(=O)[C@H](CC(C)C)NC(=O)[C@H](CC(N)=O)NC(=O)[C@@H]2CCCN2C(=O)[C@H](C(C)C)NC(=O)[C@@H](NC(=O)[C@H](CC(N)=O)NC(=O)CCCC[C@@H]2SC[C@@H]3NC(=O)N[C@@H]32)CSc2c(F)c(F)c(c(F)c2F)-c2c(F)c(F)c(c(F)c2F)SC[C@@H](C(=O)N[C@@H](CCCNC(=N)N)C(=O)N[C@H](C(=O)N[C@@H](CCCCN)C(N)=O)[C@@H](C)O)NC(=O)[C@H](C(C)C)NC(=O)[C@H](CCCCN)NC(=O)[C@H](CCC(N)=O)NC(=O)[C@H](C)NC(=O)[C@H](CC(C)C)NC(=O)[C@H](C(C)C)NC(=O)[C@H](CCC(N)=O)NC1=O [C2C18 DFBP],0.0708 ± 0.0203
4,CC(C)C[C@@H]1NC(=O)[C@H](CC(=O)O)NC(=O)CNC(=O)[C@H](CCCNC(=N)N)NC(=O)[C@H](CC(C)C)NC(=O)[C@H](CC(N)=O)NC(=O)[C@@H]2CCCN2C(=O)[C@H](C(C)C)NC(=O)[C@@H](NC(=O)[C@H](CC(N)=O)NC(=O)CCCC[C@@H]2SC[C@@H]3NC(=O)N[C@@H]32)CSc2c(F)c(F)c(c(F)c2F)-c2c(F)c(F)c(c(F)c2F)SC[C@@H](C(=O)N[C@@H](CCCNC(N)=O)C(=O)N[C@H](C(=O)N[C@@H](CCCCN)C(=O)N[C@H](C)C(N)=O)[C@@H](C)O)NC(=O)[C@H](C(C)C)NC(=O)[C@H](CCCCN)NC(=O)[C@H](CCC(N)=O)NC(=O)[C@H](C)NC(=O)[C@H](CC(C)C)NC(=O)[C@H](C(C)C)NC(=O)[C@H](CCC(N)=O)NC1=O [C2C18 CitTKAD DFBP],0.0758 ± 0.024
5,CC(C)C[C@@H]1NC(=O)[C@H](CC(=O)O)NC(=O)CNC(=O)[C@H](CCCNC(=N)N)NC(=O)[C@H](CC(C)C)NC(=O)[C@H](CC(N)=O)NC(=O)[C@@H]2CCCN2C(=O)[C@H](C(C)C)NC(=O)[C@@H](NC(=O)[C@H](CC(N)=O)NC(=O)CCCC[C@@H]2SC[C@@H]3NC(=O)N[C@@H]32)CSc2c(F)c(F)c(c(F)c2F)-c2c(F)c(F)c(c(F)c2F)SC[C@@H](C(=O)N[C@H](CCCNC(=N)N)C(=O)N[C@H](C(=O)N[C@@H](CCCCN)C(=O)N[C@H](C)C(N)=O)[C@@H](C)O)NC(=O)[C@H](C(C)C)NC(=O)[C@H](CCCCN)NC(=O)[C@H](CCC(N)=O)NC(=O)[C@H](C)NC(=O)[C@H](CC(C)C)NC(=O)[C@H](C(C)C)NC(=O)[C@H](CCC(N)=O)NC1=O [C2C18 RDTKAD DFBP],0.0553 ± 0.00606

# System: not listed separately
# Test: in vitro
# Details: mouse, serum
row,SMILES,remaining at 24 h [%]
1,CC(C)C[C@@H]1NC(=O)[C@H](CC(=O)O)NC(=O)CNC(=O)[C@H](CCCNC(=N)N)NC(=O)[C@H](CC(C)C)NC(=O)[C@H](CC(N)=O)NC(=O)[C@@H]2CCCN2C(=O)[C@H](C(C)C)NC(=O)[C@@H](NC(=O)[C@H](CC(N)=O)NC(=O)CCCC[C@@H]2SC[C@@H]3NC(=O)N[C@@H]32)CSc2c(F)c(F)c(c(F)c2F)-c2c(F)c(F)c(c(F)c2F)SC[C@@H](C(=O)N[C@@H](CCCNC(N)=O)C(=O)N[C@H](C(=O)N[C@@H](CCCCN)C(=O)N[C@H](C)C(N)=O)[C@@H](C)O)NC(=O)[C@H](C(C)C)NC(=O)[C@H](CCCCN)NC(=O)[C@H](CCC(N)=O)NC(=O)[C@H](C)NC(=O)[C@H](CC(C)C)NC(=O)[C@H](C(C)C)NC(=O)[C@H](CCC(N)=O)NC1=O [C2C18 CitTKAD DFBP],10.4
